Measured values taken from IntAct's records for PubMed 31169361.

B1: Nuclear factor erythroid 2-related factor 2 (Homo sapiens), Q16236 (parent)
chain: MMDLELPPPGLPSQQDMDLIDILWRQDIDLGVSREVFDFSQRRKEYELEKQKKLEKERQEQLQKEQEKAFFAQLQLDEETGEFLPIQPAQHIQSETSGSANYSQVAHIPKSDALYFDDCMQLLAQTFPFVDDNEVSSATFQSLVPDIPGHIESPVFIATNQAQSPETSVAQVAPVDLDGMQQDIEQVWEELLSIPELQCLNIENDKLVETTMVPSPEAKLTEVDNYHFYSSIPSMEKEVGNCSPHFLNAFEDSFSSILSTEDPNQLTVNSLNSDATVNTDFGDEFYSAFIAEPSISNSMPSPATLSHSLSELLNGPIDVSDLSLCKAFNQNHPESTAEFNDSDSGISLNTSPSVASPEHSVESSSYGDTLLGLSDSEVEELDSAPGSVKQNGPKTPVHSSGDMVQPLSPSQGQSTHVHDAQCENTPEKELPVSPGHRKTPFTKDKHSSRLEAHLTRDELRAKALHIPFPVEKIINLPVVDFNEMMSKEQFNEAQLALIRDIRRRGKNKVAAQNCRKRKLENIVELEQDLDHLKDEKEKLLKEKGENDKSLHLLKKQLSTLYLEVFSMLRDEDGKPYSPSEYSLQQTRDGNVFLVPKSKKPDVKKN

Variants of: B1
Details: with keap1_human KEAP1, Q14145

Row | Variant | effect of a mutation on the interaction
1 | D77A;E79A | disrupting interaction strength
